Data reported in US8697911B2, “Rho kinase inhibitors” (Boehringer Ingelheim International GmbH, priority 2010, dated 2014).

Protein sequences, listed by entry. Tags and fused reporters are not part of them. Residues count along the entry.
UniProt O75116, 1-543: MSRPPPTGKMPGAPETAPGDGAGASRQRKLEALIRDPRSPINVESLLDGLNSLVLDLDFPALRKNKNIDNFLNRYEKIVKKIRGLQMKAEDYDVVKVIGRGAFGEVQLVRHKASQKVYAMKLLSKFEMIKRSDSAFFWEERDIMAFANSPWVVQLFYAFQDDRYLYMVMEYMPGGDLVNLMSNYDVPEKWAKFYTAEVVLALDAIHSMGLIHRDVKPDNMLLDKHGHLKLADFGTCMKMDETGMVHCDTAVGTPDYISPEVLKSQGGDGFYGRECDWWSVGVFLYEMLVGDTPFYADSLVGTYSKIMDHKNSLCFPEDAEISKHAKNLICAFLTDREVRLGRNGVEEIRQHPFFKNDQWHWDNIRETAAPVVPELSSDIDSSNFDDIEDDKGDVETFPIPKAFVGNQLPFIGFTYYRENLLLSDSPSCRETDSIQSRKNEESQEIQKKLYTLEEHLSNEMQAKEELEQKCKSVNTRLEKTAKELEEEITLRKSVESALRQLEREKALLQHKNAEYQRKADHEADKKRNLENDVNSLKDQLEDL

What was measured:
ROCKII (1-543) [1] = target: T1, ROCKII (1-543) (Homo sapiens (Human), UniProt O75116); experiment: Luciferin-Luciferase Assay (Assay 1); type: biochemical; settings: luciferin-luciferase residual ATP; 750 nM ATP, 7.5 nM kinase
Experimental: 1. Luciferin-Luciferase Assay
The activity of ROCKII (1-543) kinase is measured utilizing Cambrex PKLight ATP Detection Reagent, a homogeneous assay technology using luciferin-luciferase to quantify residual ATP. The assay is performed in 384-well low-volume, white, non-binding surface microtiter plates (Corning). The assay buffer is 25 mM HEPES, pH 7.5, 10 mM MgCl2, 50 mM KCl, 0.2% BSA, 0.01% CHAPS, 100 μM Na3VO4 and 0.5 mM DTT. Test compounds, dissolved in neat DMSO at 500 μg/mL, are serially diluted for dose response for a final starting concentration of 3 μg/mL in 1% DMSO of assay buffer. ROCKII (1-543) (62,408 Da) is diluted in assay buffer to a final concentration of 7.5 nM in a total volume of 15 μL. Positive controls are reaction mixtures containing no test compound; negative controls (blanks) are reaction mixtures containing no kinase. After 15 minutes of pre-incubation of the test compounds with the kinase, a mixture of ATP and peptide substrate (AKRRRLSSLRA) in assay buffer is added to each well for a final concentration of 750 nM ATP and 500 nM peptide, respectively. After 90 minutes of incubation of the kinase reaction at 28° C. temperature, 10 μL of PKLight ATP Detection Reagent (warmed to room temperature previously) is added to each well. The assay plate is incubated at room temperature for additional 15 minutes and then read on an Analyst in luminescence mode. Dose-response experiments for each of the test compounds are conducted in quadruplet. IC50 values of test compounds represent 50% response of the positive control from the dose-response curve.

ROCKII (1-543) [2] = target: T1, ROCKII (1-543); experiment: IMAP Assay (Assay 2); type: biochemical; settings: IMAP fluorescence polarization; 100 μM ATP, 1 nM kinase
Experimental: This assay is performed using FAM S6 substrate peptide (Catalogue #R7184) and IMAP FP Screening Express Kit detection reagents from Molecular Devices (Sunnyvale, Calif.) in IMAP kinase reaction buffer (Tris-HCl, pH 7.2, 10 mM MgCl2, 0.05% NaN3, 0.1% phosphate-free BSA) containing 1 mM DTT. Test compounds dissolved in neat DMSO at 0.3 mg/mL are serially diluted 1 to 3 for concentration response in 100% DMSO. The DMSO serial dilutions are further diluted 33.33-fold in kinase reaction buffer, and 10 μL of this buffer dilution is transferred to Corning black 96-well half area NBS plates for a final top concentration of 3 μg/mL in 1% DMSO. 10 μL aliquot of 3 nM ROCKII (1-543) diluted in kinase reaction buffer is added to each assay well for a final concentration of 1 nM kinase. […] The kinase reaction is stopped by addition of 60 μL IMAP progressive binding reagent (Catalog #R7284) diluted 400-fold in 1× Binding buffer A. After 30 min of incubation at room temperature, the plates are read for fluorescence polarization on Analyst Plate Reader using Ex 485 nm, Em 530 nm, and FL 505 dichroic minor. […]
Where A, B, C, and D are fitted parameters (parameter B is fixed at zero POC), and x and y are the independent and dependent variables, respectively. The IC50 is determined as the inflection point parameter, C.

SMILES | IC50 (ROCKII (1-543) [1]) [nM] | IC50 (ROCKII (1-543) [2]) [nM]
N[C@@H]1CCc2nc(NC(=O)c3cccc(CNC(=O)c4csc(-c5ccncc5)n4)c3)sc2C1 [compound 32] | 1.8 | 
CN1CCc2ccc(NC(=O)c3cccc(CNC(=O)c4nc(-c5cccnc5)cs4)c3)cc2C1 [compound 202] | 11.9 | 
CN1CCc2ccc(NC(=O)c3cccc(CNC(=O)N4CCc5c(C#N)cccc54)c3)cc2C1 [compound 201, 4-cyano-2,3-dihydro-indole-1-carboxylic acid 3-(2-methyl-1,2,3,4-tetrahydro-isoquinolin-7-ylcarbamoyl)-benzylamide] | 6.9 | 
N[C@H]1CCc2nc(NC(=O)c3cccc(CNC(=O)c4csc(-c5ccncc5)n4)c3)sc2C1 [compound 34] | 1.1 | 1.1
